Experiments:
[1] = target: T1, C-C chemokine receptor type 7 (Homo sapiens) (UniProt P32248); assay: Antagonist activity at CCR7 (unknown origin) by PathHunter beta-arrestin EFC technology relative to control; format: functional; conditions: filed as antagonist, concentration not given here
T1 sequence (whole entry): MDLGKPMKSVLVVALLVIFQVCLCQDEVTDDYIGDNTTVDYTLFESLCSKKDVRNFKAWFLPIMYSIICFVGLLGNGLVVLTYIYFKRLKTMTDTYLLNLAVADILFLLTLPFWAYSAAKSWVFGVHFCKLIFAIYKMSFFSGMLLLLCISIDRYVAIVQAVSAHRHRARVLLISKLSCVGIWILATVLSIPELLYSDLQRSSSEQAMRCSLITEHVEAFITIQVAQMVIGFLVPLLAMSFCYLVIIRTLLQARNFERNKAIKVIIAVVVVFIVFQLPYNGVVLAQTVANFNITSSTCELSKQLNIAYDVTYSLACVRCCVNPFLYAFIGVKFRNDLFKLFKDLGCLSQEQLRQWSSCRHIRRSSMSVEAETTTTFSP

Amino acid sequences for entries named in this document (tags omitted).
UniProt P25025, whole entry: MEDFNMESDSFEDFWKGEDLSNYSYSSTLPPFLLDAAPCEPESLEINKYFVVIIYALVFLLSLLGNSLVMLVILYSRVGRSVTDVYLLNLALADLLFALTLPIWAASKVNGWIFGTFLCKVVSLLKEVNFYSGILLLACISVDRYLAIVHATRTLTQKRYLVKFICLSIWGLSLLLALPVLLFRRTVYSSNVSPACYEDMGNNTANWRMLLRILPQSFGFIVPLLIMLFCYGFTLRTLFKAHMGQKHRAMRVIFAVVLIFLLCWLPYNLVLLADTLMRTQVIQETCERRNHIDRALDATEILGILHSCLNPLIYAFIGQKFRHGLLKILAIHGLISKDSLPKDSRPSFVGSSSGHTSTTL

[2] = target: C-X-C chemokine receptor type 2 (Homo sapiens) (UniProt P25025); assay: Antagonist activity at CXCR2 (unknown origin) by PathHunter beta-arrestin EFC technology relative to control; format: functional; conditions: filed as antagonist, concentration not given here

In the case of `C[C@@H]1OCCC[C@]1(C)Nc1c(Nc2ccnc(C(=O)N(C)C)c2O)c(=O)c1=O`, the inhibition [1] is reported as 75% and the inhibition [2] is reported as 88%.
